Molecules are shown by their SMILES.

Amino acid sequences for entries named in this document (tags omitted).
UniProt P06276, whole entry: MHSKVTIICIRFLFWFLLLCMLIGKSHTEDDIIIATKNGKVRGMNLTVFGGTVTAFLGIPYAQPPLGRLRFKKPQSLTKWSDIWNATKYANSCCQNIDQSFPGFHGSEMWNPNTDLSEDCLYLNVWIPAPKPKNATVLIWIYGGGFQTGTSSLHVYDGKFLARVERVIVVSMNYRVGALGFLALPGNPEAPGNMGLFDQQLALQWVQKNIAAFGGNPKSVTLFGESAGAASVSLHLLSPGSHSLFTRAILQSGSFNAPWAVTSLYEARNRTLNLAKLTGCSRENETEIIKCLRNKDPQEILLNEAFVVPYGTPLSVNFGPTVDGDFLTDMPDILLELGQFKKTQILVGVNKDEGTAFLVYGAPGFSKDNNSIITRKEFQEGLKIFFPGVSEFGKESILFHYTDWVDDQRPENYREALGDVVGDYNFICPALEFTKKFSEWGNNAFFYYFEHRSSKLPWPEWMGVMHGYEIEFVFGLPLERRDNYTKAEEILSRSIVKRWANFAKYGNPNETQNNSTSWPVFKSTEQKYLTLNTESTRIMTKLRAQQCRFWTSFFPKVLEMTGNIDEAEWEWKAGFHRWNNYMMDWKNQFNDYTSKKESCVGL

Data on one compound can be found in ChEMBL document CHEMBL4765338, “Simple analogues of natural product chelerythrine: Discovery of a novel anticholinesterase 2-phenylisoquinolin-2-ium scaffold with excellent potency against acetylcholinesterase” (Eur J Med Chem, 2020).

In the test the target is Cholinesterase (Homo sapiens, UniProt P06276).

By IC50 is commonly meant the concentration needed to halve the response being measured. In the case of `CCN(C)C(=O)Oc1cccc([C@H](C)N(C)C)c1` [RIVASTIGMINE], half-maximal inhibition (IC50) was put at 2860 nM.
